Source: PubChem BioAssay
Shown are actives, neighbours in structure and some others; about 1.5% of the full set was active somewhere.
eIF4H FP inh – inhibitors of RNA binding by human eIF4H; eIF4H fluorescence polarization binding assay; inhibition, % at 35 µM; 290,000 compounds, 0.94% hits;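 also: calls also rest on retests at 20 µM and on dose response follow-up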
Pemphigus Ab inh – human desmoglein-3 autoantibody binding inhibition; P32926; DSG3-coupled beads, scFv-anti-DSG3-GFP binding, flow cytometry; hits give low values; binding (percent of control), % at 10 µM; 310,000 compounds, 0.48% hits;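 active = binding more than 3 SD below its plate's average and above zero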;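 also: hits lower antibody fragment binding to DSG3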
PABP polyA inh – PABP-poly(A) binding inhibition | calls only at 35 µM | P11940 | PABP-poly(A) RNA binding, fluorescence polarization | 290,000 compounds, 1% hits;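 also: calls also rest on retests at 20 µM and on dose response follow-up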
UUG fidelity – yeast start codon fidelity modulation. S. cerevisiae UUG-firefly luciferase reporter, luminescence/redox ratio. activity score, % at 18.7 µM. 0.13% of 350,000 active;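 active means replicate mean at a twofold rise or more, about +100% in these data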;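 further: firefly luciferase made from a UUG start codon reports start codon fidelity; reporter light over untreated wells divided by growth signal over untreated wells; some hits fall short of that in this replicate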
PABP1 MLLE inh – inhibitors of microRNA-mediated deadenylation, human PABP1 MLLE binding; GST-MLLE / FITC-PAM2 fluorescence polarization; inhibition, % at 20 µM; 360,000 compounds, 0.36% hits; P11940; in the data active = inhibition above about 35%, passing the limit was not always enough;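 also: plate controls were DMSO wells with GST-MLLE for no effect and wells lacking GST-MLLE protein for full effect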
The depositor's hits bear a star. Unless noted, no rule for the calls is given here.

How did O=C1/C(=C/c2ccco2)CCc2ccccc21 do in these assays?
eIF4H FP inh: 81.3; Pemphigus Ab inh: 134.9; PABP polyA inh: inactive; UUG fidelity: 5.3; PABP1 MLLE inh: 0.2

What do the screens show for `CCC1C/C(=C/c2ccco2)C(=O)/C(=C/c2ccco2)C1` (configuration not stated)?
eIF4H FP inh: 83.8; PABP polyA inh: inactive

How did C[C@@H]1CCCCO[C@H](CN(C)S(C)(=O)=O)[C@@H](C)CN([C@@H](C)CO)C(=O)c2cc(NC(=O)Nc3cccc4ccccc34)ccc2O1 do in these assays?
UUG fidelity: 11.5

How did Cc1ccccc1S(=O)(=O)N1CC[C@@H]2[C@@H](CO)Nc3ccc(C#Cc4ccccc4)cc3[C@@H]21 do in these assays?
UUG fidelity: 3.6

What do the screens show for `COc1ccc(C2C=C(c3ccc(C)cc3)Nc3ncnn32)cc1` (configuration not stated)?
eIF4H FP inh: 0.7; Pemphigus Ab inh: 102.5; PABP polyA inh: inactive; UUG fidelity: -18.1; PABP1 MLLE inh: 41.2*

What do the screens show for `CO[C@H]1CN(C)C(=O)c2ccc(NC(C)=O)cc2OC[C@@H](C)N(Cc2cccc(F)c2)C[C@H]1C`?
UUG fidelity: 20.9

How did O=C(NCc1ccncc1)c1cccc(S(=O)(=O)NCc2ccccc2)c1 do in these assays?
eIF4H FP inh: 13.0; Pemphigus Ab inh: 103.2; PABP polyA inh: active; UUG fidelity: -5.9; PABP1 MLLE inh: 5.1

How did O=C(c1cccc(S(=O)(=O)NCc2ccccc2)c1)N1CCN(c2ccccc2)CC1 do in these assays?
UUG fidelity: 6.5; PABP1 MLLE inh: 1.3

Results for O=C(c1cccc(S(=O)(=O)NCc2ccccc2)c1)N1CCN(c2cccc(C(F)(F)F)c2)CC1 ?
eIF4H FP inh: 15.7; Pemphigus Ab inh: 104.3; PABP polyA inh: active; UUG fidelity: -3.0; PABP1 MLLE inh: 12.2

Results for C[C@@H]1CN([C@H](C)CO)C(=O)c2cc(NS(C)(=O)=O)ccc2O[C@@H](C)CCCCO[C@@H]1CN(C)S(C)(=O)=O ?
UUG fidelity: 1.4

What do the screens show for `Oc1ccc(N=Cc2ccc(O)c(O)c2)cc1`?
eIF4H FP inh: 105.9*; Pemphigus Ab inh: 93.6; PABP polyA inh: active; UUG fidelity: -12.1; PABP1 MLLE inh: 3.6

How did CCCCCN1C=CC(=C2C(=O)c3ccccc3C2=O)C=C1 do in these assays?
eIF4H FP inh: 88.4*; Pemphigus Ab inh: 101.4; PABP polyA inh: active; PABP1 MLLE inh: -3.4

What do the screens show for `CC1=CC(=C2C(=O)c3ccccc3C2=O)C=C(C)N1C`?
eIF4H FP inh: -0.5; Pemphigus Ab inh: 81.0; PABP polyA inh: inactive; PABP1 MLLE inh: -3.1

How did CCN1CC2=C(OC(N)=C(C#N)C2c2cccs2)/C(=C\c2cccs2)C1 (configuration not stated) do in these assays?
eIF4H FP inh: 97.6*; Pemphigus Ab inh: 105.3; PABP polyA inh: active; PABP1 MLLE inh: -52.0

Results for COc1ccc(/C=N/NC(=O)c2nn(-c3ccc(Cl)cc3)c(=O)c3c(N)scc23)cc1 ?
eIF4H FP inh: 66.3; Pemphigus Ab inh: 81.7*; PABP polyA inh: inactive; UUG fidelity: -6.5; PABP1 MLLE inh: 11.1

Results for COc1ccc(/C=N/NC(=O)c2nn(-c3ccccc3)c(=O)c3c(N)scc23)cc1 ?
eIF4H FP inh: 70.9*; PABP polyA inh: inactive; UUG fidelity: -12.6; PABP1 MLLE inh: 16.4

What do the screens show for `CCOC(=O)c1nn(-c2ccc(OC)cc2)c(=O)c2c(N)scc12`?
eIF4H FP inh: -5.8; PABP polyA inh: inactive; UUG fidelity: -13.2; PABP1 MLLE inh: 11.4

What do the screens show for `O=C(N[C@H]1CC[C@H](CCn2cc(-c3ccccn3)nn2)O[C@H]1CO)c1ccncc1`?
UUG fidelity: 0.4

What do the screens show for `COc1ccc(C(=O)NN2CCCCC2)cc1OC`?
eIF4H FP inh: 15.9; Pemphigus Ab inh: 100.8; PABP polyA inh: inactive; UUG fidelity: -24.0; PABP1 MLLE inh: 1.8

What do the screens show for `COc1ccc(C(=O)Nn2cnnc2)cc1OC`?
eIF4H FP inh: 88.7*; Pemphigus Ab inh: 102.2; PABP polyA inh: active; PABP1 MLLE inh: 0.8

What do the screens show for `CC(=NNc1ccc2ccccc2n1)c1ccccc1O`?
Pemphigus Ab inh: 92.9; PABP1 MLLE inh: -3.9

Results for C/C(=N\Nc1nc2ccccc2nc1C)c1ccccc1O ?
eIF4H FP inh: 3.9; Pemphigus Ab inh: 78.0*; PABP polyA inh: inactive; UUG fidelity: -7.0; PABP1 MLLE inh: -2.6

How did C[C@@H](O)C#Cc1ccc([C@H]2[C@H](CO)N3CCCCN(S(=O)(=O)c4ccccc4)C[C@@H]23)cc1 do in these assays?
UUG fidelity: 32.2

How did C[C@H](CO)N1C[C@H](C)[C@H](CN(C)Cc2ccc(-c3ccccc3)cc2)Oc2ccc(N(C)C)cc2C1=O do in these assays?
UUG fidelity: -9.9

Results for CC(C)NC(=O)Nc1ccc2c(c1)C(=O)N([C@@H](C)CO)C[C@H](C)[C@@H](CN(C)C(=O)NC(C)C)O2 ?
UUG fidelity: -6.4

Results for CN1c2ccc(-c3ccccc3)cc2[C@@H]2[C@@H](CCN2C(=O)c2ccc3c(c2)OCO3)[C@@H]1CO ?
UUG fidelity: -11.3

How did Cc1ccc(C2=NC(=O)/C(=C/c3cc(O)c(O)c(Br)c3)S2)cc1 do in these assays?
eIF4H FP inh: 56.4*; Pemphigus Ab inh: 103.1; PABP polyA inh: active; UUG fidelity: 4.5; PABP1 MLLE inh: 5.2

How did O=C(O)c1ccc2[nH]c3c(c2c1)CSCC3 do in these assays?
eIF4H FP inh: 56.2*; Pemphigus Ab inh: 107.3; PABP polyA inh: inactive; UUG fidelity: -8.7; PABP1 MLLE inh: 33.4

Results for CN(C)CCOC(=O)c1ccc2[nH]c3c(c2c1)CSCC3 ?
eIF4H FP inh: 32.6; Pemphigus Ab inh: 102.7; PABP polyA inh: inactive; PABP1 MLLE inh: 19.8

How did Cc1noc(C)c1NC(=O)N(C)C[C@H]1Oc2ccc(NS(=O)(=O)c3c(C)noc3C)cc2CC(=O)N([C@@H](C)CO)C[C@@H]1C do in these assays?
UUG fidelity: -5.4

Results for CN(C)c1ccc(N/C=C/C(=O)c2ccc(F)cc2)cc1 ?
eIF4H FP inh: 46.6*; Pemphigus Ab inh: 102.2; PABP polyA inh: active; UUG fidelity: -25.4; PABP1 MLLE inh: -69.5

How did CN1[C@@H]2Cn3c(ccc(-c4ccccc4)c3=O)[C@H]1[C@@H](C(=O)NCC1CC1)[C@@H]2CO do in these assays?
UUG fidelity: -7.2

What do the screens show for `CN(c1ccc(OCC(=O)OCC(=O)Nc2ccccc2)cc1)S(=O)(=O)c1cccs1`?
eIF4H FP inh: active; Pemphigus Ab inh: 103.1; PABP polyA inh: active; PABP1 MLLE inh: 3.0

Results for CN(c1ccc(OCC(=O)OCC(=O)Nc2ccc(Br)cc2)cc1)S(=O)(=O)c1cccs1 ?
eIF4H FP inh: -8.8; Pemphigus Ab inh: 86.0; PABP polyA inh: inactive; UUG fidelity: -14.5; PABP1 MLLE inh: -11.8

Results for CCOc1ccc(-c2csc(/C(C#N)=C\c3ccc(O)c([N+](=O)[O-])c3)n2)cc1 ?
eIF4H FP inh: 58.2*; Pemphigus Ab inh: 119.0; PABP polyA inh: inactive; UUG fidelity: -12.6; PABP1 MLLE inh: -24.6

Random excerpt: three records from the list
How did Cc1noc(C)c1NC(=O)N(C)C[C@H]1Oc2ccc(NS(=O)(=O)c3c(C)noc3C)cc2CC(=O)N([C@@H](C)CO)C[C@@H]1C do in these assays?
UUG fidelity: -5.4

How did O=C(O)c1ccc2[nH]c3c(c2c1)CSCC3 do in these assays?
eIF4H FP inh: 56.2*; Pemphigus Ab inh: 107.3; PABP polyA inh: inactive; UUG fidelity: -8.7; PABP1 MLLE inh: 33.4

Results for CCOc1ccc(-c2csc(/C(C#N)=C\c3ccc(O)c([N+](=O)[O-])c3)n2)cc1 ?
eIF4H FP inh: 58.2*; Pemphigus Ab inh: 119.0; PABP polyA inh: inactive; UUG fidelity: -12.6; PABP1 MLLE inh: -24.6
